The entries are a selection whose mix differs from that of the whole data set. Some tests of the compounds listed are not included; inactive here does not mean inactive elsewhere. Inconclusive results are not listed. Activity calls are given as the source filed them. Calls follow the shape of the dose curve; as a rule, active = well fitted inhibition curve with a large enough effect; inconclusive = small, poorly fitted or top-dose-only effect; inactive = flat fitted curve, though single readings scatter.
% is scaled to controls: 0 for no effect and ±100 for the full control effect; potency is read from the fitted curve at half-maximal effect.

Protein sequences, listed by entry. Tags and fused reporters are not part of them.
UniProt P53350, whole entry: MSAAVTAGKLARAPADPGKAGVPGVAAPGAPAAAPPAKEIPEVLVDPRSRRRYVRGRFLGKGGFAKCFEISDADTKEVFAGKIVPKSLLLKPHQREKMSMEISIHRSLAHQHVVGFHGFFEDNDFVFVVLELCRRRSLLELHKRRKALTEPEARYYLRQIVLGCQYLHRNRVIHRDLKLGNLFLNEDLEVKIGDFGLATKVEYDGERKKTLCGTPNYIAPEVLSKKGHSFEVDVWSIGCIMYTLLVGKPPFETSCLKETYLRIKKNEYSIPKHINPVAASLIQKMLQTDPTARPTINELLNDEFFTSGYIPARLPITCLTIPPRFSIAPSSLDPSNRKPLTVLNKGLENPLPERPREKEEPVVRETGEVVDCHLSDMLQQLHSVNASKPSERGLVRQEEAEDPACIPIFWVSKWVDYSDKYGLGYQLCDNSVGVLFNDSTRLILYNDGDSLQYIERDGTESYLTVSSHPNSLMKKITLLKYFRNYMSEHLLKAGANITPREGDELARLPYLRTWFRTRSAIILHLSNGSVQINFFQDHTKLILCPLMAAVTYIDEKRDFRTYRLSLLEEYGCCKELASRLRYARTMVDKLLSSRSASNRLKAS

The target in this assay is Serine/threonine-protein kinase PLK1 (Homo sapiens) (UniProt P53350). The experiment in a line: qHTS for Inhibitors of PLK1-PDB (polo-like kinase 1 - polo-box domain): Primary Screen. Also: nearly all actives have a fitted effect of over 65% in size. As to max response, negative = inhibition: series mostly up to about 57 µM. As to conditions: Plk1 PBD binding of FITC phosphopeptide, fluorescence polarization.
Turning to `COc1ccc(Br)c(C(=O)NCC2(N3CCCCC3)CCCCC2)c1`, the max response, negative = inhibition was inactive: -4.04%. The same measure, in the same setting: to `C=C(C)C#CC(O)(C(=O)OC1CCN(C)CC1)c1ccccc1` (stereo unspecified) belongs inactive: -7.56%; to `CN(C)c1cccc(C(=O)NCC2(N(C)C)CCCCC2)c1`, inactive: -3.17%. For `CC(C)Oc1ccc(C(=O)NCC2(N(C)C)CCCCC2)cc1`, the max response, negative = inhibition is inactive: -1.06%. On the same count and under the same terms, the value for `O=C(OCCN1CCCC1)C(O)(c1ccccc1)c1ccccc1` was inactive: 0.269%; that for `O=C(OC1CN2CCC1CC2)C(CO)(c1ccccc1)c1ccccc1` (stereo unspecified) was inactive: -1.09%; that for `COc1cccc(C(=O)NCC2(N3CCCCC3)CCCCC2)c1` was inactive: -8.91%. Same read-out and setting: the value for `COc1ccc(Cl)cc1C(=O)NCC1(N(C)C)CCCCC1` was inactive: 0.929%; that for `O=C(NCC1(N2CCCCC2)CCCCC1)c1cccc(Cl)c1` was inactive: -5.82%.

Consider `CN(C)C1(CNC(=O)c2ccc(Br)cc2)CCCCC1`, for which the max response, negative = inhibition was inactive: -5.25%. On the same count and under the same terms, to `COc1cc(C(=O)NCC2(N(C)C)CCCCC2)c([N+](=O)[O-])cc1OC` belongs inactive: -12.4%; to `C=CCN1CCN(CCOC(=O)C(O)(c2ccccc2)c2ccccc2)CC1`, inactive: 3.13%. Same read-out and setting: the value for `O=C(NCC1(N2CCCCC2)CCCCC1)c1cc(F)c(F)cc1Cl` was inactive: -5.93%.

In the case of `Cc1cc(C(=O)NCC2(N3CCCCC3)CCCCC2)ccc1[N+](=O)[O-]`, the max response, negative = inhibition is inactive: -12.8%. Same read-out and setting: to `CCN1CCCC(OC(=O)C2(O)c3ccccc3C=Cc3ccccc32)C1` (stereo unspecified) belongs inactive: -13.3%.

Take `O=C(NCC1(N2CCCCC2)CCCCC1)c1cccc(Br)c1`: the max response, negative = inhibition was inactive: 0.334%.

For the compound `COc1ccc(C(=O)NCC2(N(C)C)CCCCC2)cc1`, the max response, negative = inhibition is inactive: 1.4%.

On to `Cc1ccccc1C(=O)NCC1(N2CCCCC2)CCCCC1`, for which the max response, negative = inhibition was inactive: -5.93%. Regarding `CN(C)C1CCCC1OC(=O)C(O)(c1ccccc1)c1ccccc1` (stereo unspecified), the Potency is active: 23.8 µM. For `CN(C)c1ccc(C(=O)NCC2(N(C)C)CCCCC2)cc1`, the max response, negative = inhibition is inactive: 0.939%. Still for that read-out and setting: the value for `CC(C)N1C(=O)CC2(CCN(CCOC(=O)C(O)(c3ccccc3)c3ccccc3)CC2)C1=O` was inactive: -3.86%.

Regarding `CCN(CC)CC(C)C(C)OC(=O)C(O)(c1ccccc1)c1ccccc1` (stereo unspecified), the max response, negative = inhibition was inactive: -13.6%. Same read-out and setting: the value for `COc1cc(SC)ccc1C(=O)NCC1(N(C)C)CCCCC1` was inactive: -1.27%; that for `Cc1ccc(C(=O)NCC2(N3CCCCC3)CCCCC2)cc1` was inactive: -9.39%; that for `O=C(NCC1(N2CCCCC2)CCCCC1)c1cc([N+](=O)[O-])ccc1Cl` was inactive: -2.27%. Same read-out and setting: the value for `CN1[C@@H]2CC[C@H]1CC(OC(=O)C(O)(c1ccccc1)c1ccccc1)C2` (stereo partly specified) was inactive: -3.84%.

These data come from PubChem BioAssay AID720504 (National Center for Advancing Translational Sciences (NCATS), 2013).
